One assay concerns recombinant TMPRSS2. Kind of assay: Recombinant enzyme inhibition assay, TMPRSS2. The following applies: fluorogenic reporter substrate, Fig. 3A.
For a further assay, the system named is TMPRSS11D. Kind of assay: Cellular TMPRSS inhibition assay, TMPRSS11D. The following applies: protease overexpressed on HEK293T-cells, fluorogenic reporter substrate; Fig. 3C-D.

Structures are written as SMILES.

With `CC[C@H](C)[C@@H]1NC(=O)[C@H](Cc2ccccc2)NC(=O)[C@H](C)NC(=O)[C@H](CCCNC(=N)N)NC(=O)[C@@H]2CSSC[C@@H]3NC(=O)CNC(=O)CNC(=O)[C@H](Cc4ccc(O)cc4)NC(=O)[C@@H]4CCCN4C(=O)[C@H](Cc4ccccc4)NC(=O)[C@H](CC(C)C)NC(=O)[C@H](C(C)C)NC(=O)[C@H](CSSC[C@H](NC(=O)[C@H](CCC(=O)O)NC(=O)[C@H](CCCCN)NC(=O)[C@H](CCC(=O)O)NC(=O)[C@H](CO)NC(=O)[C@H](Cc4ccc(O)cc4)NC(=O)[C@H](Cc4ccccc4)NC(=O)[C@H](CCCCN)NC(=O)[C@H](CC(N)=O)NC(=O)CNC(=O)[C@H](CC(N)=O)NC(=O)CNC(=O)[C@H](CCC(N)=O)NC3=O)C(=O)N[C@@H](CCCNC(=N)N)C(=O)N[C@@H](CCC(=O)O)C(=O)N[C@@H](Cc3ccc(O)cc3)C(=O)N[C@H](C(=O)NCC(=O)N[C@H](C(=O)N3CCC[C@H]3C(=O)NCC(=O)N[C@@H](CC(=O)O)C(=O)NCC(=O)N[C@@H](CC(=O)O)C(=O)O)C(C)C)CSSC[C@H](NC(=O)[C@H](C)NC(=O)[C@H](C)NC(=O)[C@@H](N)C(C)C)C(=O)N[C@@H](CC(N)=O)C(=O)N[C@@H](CC(C)C)C(=O)N3CCC[C@H]3C(=O)N[C@@H]([C@@H](C)CC)C(=O)N[C@@H](C(C)C)C(=O)N[C@@H](CCCNC(=N)N)C(=O)NCC(=O)N3CCC[C@H]3C(=O)N2)NC(=O)[C@H](CCCCN)NC(=O)CNC(=O)[C@H](CCCCN)NC(=O)[C@H](C(C)C)NC(=O)[C@H](C)NC(=O)[C@H](CC(=O)O)NC(=O)[C@H](Cc2ccccc2)NC(=O)[C@H](C)NC(=O)[C@H](Cc2c[nH]c3ccccc23)NC(=O)[C@H](CC(C)C)NC(=O)[C@H](CCC(N)=O)NC1=O` [Trypstatin], the “inhibition of TMPRSS2 protease” value in the assay with recombinant TMPRSS2 is “inhibits”. The “inhibition of TMPRSS 11D” value in the assay on TMPRSS11D is listed as “inhibited”.

Source of the values: patent EP4545091A1 (priority 2023, dated 2025).
